{
  "sequences": {"note": "Chains of the proteins cited; added tags and fusions are not shown.", "UniProt C7C422, whole entry, looked up, species assumed": "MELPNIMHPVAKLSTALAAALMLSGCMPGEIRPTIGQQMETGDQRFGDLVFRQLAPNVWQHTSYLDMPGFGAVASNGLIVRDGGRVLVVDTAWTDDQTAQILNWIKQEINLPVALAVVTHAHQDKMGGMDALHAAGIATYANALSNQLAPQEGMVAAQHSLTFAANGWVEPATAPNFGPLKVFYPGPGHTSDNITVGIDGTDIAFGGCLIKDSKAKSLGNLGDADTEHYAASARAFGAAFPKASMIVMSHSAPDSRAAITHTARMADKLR"},
  "source": "patent US20250325542A1",
  "about": "“INHIBITORS OF ANTIMOCROBIAL RESISTANCE AND METHOS USING SAME” (Baylor College of Medicine, priority 2022, published 2025)",
  "target": "NDM-1 (Klebsiella pneumoniae, UniProt C7C422)",
  "settings": "read-out: NDM-1 Ki",
  "data": [
    {"molecule": "CN(C)C(=O)c1ccc(CNCc2ccc(O)c(C(=O)O)c2)s1", "note": "[CDD-2350, 5-((((5-(dimethylcarbamoyl)thiophen-2-yl)methyl)amino)methyl)-2-hydroxybenzoic acid]", "values": [
      {"measurement": "Ki", "value": "125 ± 14", "unit": "µM"}
    ]}
  ]
}
